Paper PMC11417371, “ENL reads histone β-hydroxybutyrylation to modulate gene transcription” (Nucleic Acids Research, 2024)

Target: T1, YEATS domain of ENL (ENLYEATS) (Homo sapiens, UniProt Q03111)
T1 construct: 6xHis-SUMO (N, cleaved yes); made in house; host or cells: Escherichia coli BL21(DE3)
T1 sequence (Q03111 1-148): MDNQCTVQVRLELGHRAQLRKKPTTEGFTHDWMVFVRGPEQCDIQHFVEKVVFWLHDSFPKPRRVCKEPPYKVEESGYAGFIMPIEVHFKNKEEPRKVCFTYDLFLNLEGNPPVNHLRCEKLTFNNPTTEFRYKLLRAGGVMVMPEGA
Assay: ITC binding to ENL YEATS domain (wild type)
Conditions: MicroCal PEAQ ITC, 15°C, protein 100 μM, peptide 1000 μM, 19 drops, one set of binding sites model, histone H3 (1–17) peptides, ENLYEATS wild type (residues 1–148)

In the case of “unmodified: unmodified (H3K9un) histone H3 1-17 peptide”, the “binding dissociation constant (Kd)” value is reported as “not detected”.
